The target of this assay is GST-hCAR-LBD (Homo sapiens, UniProt Q14994). The assay is described as follows: CoAct binding inverse agonist assay (LanthaScreen TR-FRET, fluorescent PGC-1α coactivator recruitment/repression). It is filed as biochemical. The settings on record: Table 4. In general terms: TR-FRET usually uses a lanthanide donor and a delayed reading to cut background.

The chains behind the UniProt entries cited, without tags or fusion partners. Residues count along the entry.
UniProt Q14994, 109-352 limits assumed: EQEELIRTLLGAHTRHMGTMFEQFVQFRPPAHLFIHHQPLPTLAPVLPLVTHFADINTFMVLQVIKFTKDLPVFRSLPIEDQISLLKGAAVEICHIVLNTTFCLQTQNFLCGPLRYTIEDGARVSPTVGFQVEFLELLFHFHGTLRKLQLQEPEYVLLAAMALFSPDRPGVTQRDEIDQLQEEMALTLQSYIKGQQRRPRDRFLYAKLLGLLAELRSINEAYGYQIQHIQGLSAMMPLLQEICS

We go through two molecules from US9908890B2, “Selective inhibitors of constitutive androstane receptor” (ST. JUDE CHILDREN'S RESEARCH HOSPITAL, priority 2014, dated 2018).

SMILES strings stand for the structures.

One may read the IC50 as the concentration that gives 50% inhibition. The low end stands for greater potency, the high end for weaker potency. On to `CC(C)OC(=O)Nc1ccc2c(c1)N(CC(=O)n1cccc1)c1ccccc1CC2`, for which the concentration for half-maximal inhibition (IC50) was found to be 1.17 µM. This counts as single-digit micromolar.

`CC(C)OC(=O)Nc1ccc2c(c1)N(CCn1cccc1)c1ccccc1CC2` gave a concentration for half-maximal inhibition (IC50) of 0.31 µM.
